Test results reported in patent publication US12280118B2 (Kyowa Kirin Co., Ltd., priority 2017, dated 2025).

Legend:
[1] = system: human Tresp; test: Inhibitory activity of IL-2-stimulated Tregs on Tresp proliferation; format: cell-based; conditions: Tregs cultured 7 days with IL-2 (final concentration 65 nM); compared with unstimulated Treg
Procedure: All cells were separated from each other by the same lot of frozen human PBMC.
Seven days before the assay, Tregs were separated from the frozen human PBMCs as described in Example 13. […] The obtained cells were used as IL-2-stimulated Tregs.
The cell preparation on the day of test was performed as follows. Tregs were separated from the frozen human PBMC by the method described in Example 13 and used as unstimulated Tregs. After CD3^+CD25^− T cells were separated from the frozen human PBMC, by using EasySep Human T Cell Enrichment Kit (manufactured by […] Technologies) and EasySep Human Pan-CD25 Positive Selection and Depletion Kit (manufactured by […] Technologies), the cells were labeled by reacting Celltrace violet (manufactured by Thermo Fischer […]) diluted to 40 μmol/L with a 10% FBS-containing RPMI1640 medium, at room temperature for 5 minutes. […]
Thereafter, the cells were stained with anti-human CD4-APC (manufactured by BD Pharmingen) and anti-human CD8-PE (manufactured by BD Pharmingen) (at room temperature for 15 minutes), and then various fluorescent intensities were measured by flow cytometer FACS Canto II (manufactured by BD Biosciences).
The obtained data was exported as FCS file, and then analyzed using data analysis software FLowJo (TreeStar, version 7.6.5) for a division index value, which is an average number of cell divisions in CD4^+ Tresp or CD8^+ Tresp.

[2] = system: human PBMC; test: Ex vivo assay: cytokine production of human PBMC; format: cell-based; conditions: human PBMC in autologous plasma with OKT3, 5 days, culture supernatant
Procedure: Production amounts of various cytokines of human PBMC stimulated with various IL-2 were measured by a method below.
After dispensing human peripheral blood into a 15 mL centrifuge tube, the human peripheral blood was centrifuged at 2000 rpm for 10 minutes, and a supernatant thereof was collected to obtain human plasma. The obtained plasma was sterilized by filtration using a 0.22 μm filter. The same amount of PBS as the collected plasma was added to the peripheral blood and diluted, and then human PBMC was obtained by a density gradient centrifugation method using Ficoll Paque plus (manufactured by GE Healthcare).
The obtained human PBMC was suspended in autologous plasma at 5×10^6 cells/mL, and an anti-CD3 antibody OKT3 was added thereto to obtain a final concentration of 0.5 μg/mL. […] After culturing at 37° C. under 5% CO2 for 5 days, the culture supernatant was collected, and a production amount of cytokine in the supernatant was quantified using Human Th1/2/17 CBA kit (manufactured by BD Biosciences).

Which “proliferation of Tresp in the presence of IL-2-stimulated Tregs” value [1] does the source give for “IL-2 (P): commercially available IL-2 manufactured by peprotech” here?
Its value is “inhibited”.

What about the “production amount of IFNγ” value [2] of the same substance?
The value was “promoted”.

And the “production amount of IL-4” value [2]?
The value was “promoted”.

What about the “production amount of IL-6” value [2] of the same substance?
Its value is “promoted”.

What about the “production amount of IL-10” value [2] of the same substance?
The value was “promoted”.

What about the “production amount of TNFα” value [2] of the same substance?
The value was “promoted”.
